Sequences of proteins named here, by UniProt entry; tags and fusion partners are left off.
UniProt O75762, whole entry: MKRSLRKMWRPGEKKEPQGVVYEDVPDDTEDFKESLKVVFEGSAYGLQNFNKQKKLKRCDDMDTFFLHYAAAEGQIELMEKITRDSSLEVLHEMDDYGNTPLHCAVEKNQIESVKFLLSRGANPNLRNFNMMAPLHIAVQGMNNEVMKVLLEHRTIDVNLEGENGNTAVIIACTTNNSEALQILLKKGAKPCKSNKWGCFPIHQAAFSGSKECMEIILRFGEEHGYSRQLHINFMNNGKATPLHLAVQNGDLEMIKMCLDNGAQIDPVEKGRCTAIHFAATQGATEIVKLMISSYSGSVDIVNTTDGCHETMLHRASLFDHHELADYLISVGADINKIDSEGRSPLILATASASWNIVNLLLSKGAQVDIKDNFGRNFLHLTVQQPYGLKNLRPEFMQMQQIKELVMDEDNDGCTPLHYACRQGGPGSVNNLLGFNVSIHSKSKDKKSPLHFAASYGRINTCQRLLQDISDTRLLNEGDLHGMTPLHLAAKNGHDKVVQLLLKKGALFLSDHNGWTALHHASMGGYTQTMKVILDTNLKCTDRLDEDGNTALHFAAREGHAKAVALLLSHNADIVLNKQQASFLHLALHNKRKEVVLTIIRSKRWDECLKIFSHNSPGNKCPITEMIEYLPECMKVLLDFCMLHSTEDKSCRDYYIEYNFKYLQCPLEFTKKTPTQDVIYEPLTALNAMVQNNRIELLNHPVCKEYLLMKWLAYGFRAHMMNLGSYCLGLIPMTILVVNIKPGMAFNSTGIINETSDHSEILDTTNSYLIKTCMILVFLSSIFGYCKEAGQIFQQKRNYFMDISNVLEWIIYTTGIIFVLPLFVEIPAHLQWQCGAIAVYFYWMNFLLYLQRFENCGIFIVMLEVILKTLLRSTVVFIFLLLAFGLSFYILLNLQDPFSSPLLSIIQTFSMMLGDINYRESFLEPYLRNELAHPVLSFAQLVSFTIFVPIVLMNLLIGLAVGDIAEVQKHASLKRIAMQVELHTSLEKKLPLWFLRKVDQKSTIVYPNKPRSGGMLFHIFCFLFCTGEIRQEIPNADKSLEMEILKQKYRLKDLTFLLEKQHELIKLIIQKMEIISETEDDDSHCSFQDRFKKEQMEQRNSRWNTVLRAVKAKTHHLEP

In patent publication US9580411B2, “Substituted sulfonamide compounds” (Hoffmann-La Roche Inc., priority 2012, dated 2017):

Target: hTRPA1 (Homo sapiens (Human), UniProt O75762)
Experiment: Dose response calcium flux assay (FLIPR), ChanTest hTRPA1-CHO stably transfected cell line
Conditions: read-out: IC50 (FLIPR), CHO-K1 Tet-On human TRPA1 cells, cinnamaldehyde agonist (final 100 uM)
Method: IC50 Determinations of Exemplified Compounds Dose Response Assay: Chan Test hTRPA1-CHO Stably Transfected Cell Line
CHO-K1 Tet-On_HOMSA_TRPA1_Clone_20
Chinese Hamster Ovary cells, inducible expression
• Ham's F-12 with 10% tetracycline-free FBS • 1× penicillin-streptomycin • 1× glutamax • 0.01 mg/ml Blasticidin • 0.40 mg/ml Zeocin • The cell line doubling rate was ˜15 hours. […] Experiments were run at 24 hours post induction. Plating Conditions CHOK1/TRPA1 Cells: • Harvested cells with 0.025% trypsin/EDTA. • Resuspended cells in growth media without selection antibiotics. • Measured cell density and diluted to 2.4×10^5 cells/ml in media containing 1 ug/ml Doxycycline Plate 25 ul/well into 384 well black/clear tissue culture-treated plates. • Incubated overnight at 37° C. […]
After incubation, both the cell and compound plates were brought to the FLIPR and 20 ul of the diluted compounds/antagonist/bk were transferred to the cell plates by the FLIPR. […] During the compound addition as well as agonist addition, fluorescence readings were taken simultaneously from all 384 wells of the cell plate every 1.5 seconds. Five readings were taken to establish a stable baseline, then 20 ul of sample was rapidly (30 ul/sec) and simultaneously added to each well of the cell plate. […] Responses (increase in peak fluorescence) in each well following agonist addition was determined. […]

Structure (SMILES): CC(C)N(CC(=O)NCc1cccc(-c2ccc(C(F)(F)F)cc2)c1)S(=O)(=O)c1ccccc1
- IC50: 48 nM
